Measured values: patent US20250154129A1, “CRYSTALLINE PHARMACEUTICALLY ACCEPTABLE SALT AND POLYMORPHIC FORM OF THE GLUTAMINYL CYCLASE INHIBITOR VAROGLUTAMSTAT” (VIVORYON THERAPEUTICS N.V., priority 2023, published 2025)
Like-named read-outs stand apart in the source and are kept apart here. Values belong to the compound of their own block, whether it stands above or below them.

Key:
[1] = for hygroscopicity (DVS, overall conclusion): 0 to 95% RH
[2] = USP method, crystallinity factor from XRPD areas A, B, C; hydrochloride
[3] = Crystallinity by XRPD of salt forms from Example 3.2; assay type: physicochemical; conditions: 1 g scale, isopropanol
Description: • Angle: 2θ=2° to 2θ=40° • Sampling width 0.02 • Measurement time: 75 minutes.
Solid was positioned on sample holder, prepared with grease and flattened with a disc of glass.

[4] = Hygroscopicity (DVS) of salt forms from Example 3.2; assay type: physicochemical; conditions: for hygroscopicity: 1 g scale, isopropanol, DVS
From the text: VTI-SA by TA Instruments with Isotherm Software for data acquisition and handling, glass sample holder and de-ionised water for vapour production.

[5] = Solubility in water of salt forms from 1 g scale salt screening in isopropanol
From the text: For such salts with a clear stoichiometry, their preparation was then repeated on 1 g scale (free base) in isopropanol with the acid slowly being added followed by seeding (seeds as obtained from the screening experiment). The solids were then further characterized with regard to: • Handling of crystals, • Crystal habit (microscopy, macroscopic): presence and shape of crystals, • Crystallinity (quality of crystals, XRPD), • Thermal analysis (DSC and TGA), • Hygroscopicity (DVS), and • Solubility in water.

SMILES: CCCOc1ccc([C@H]2CNC(=O)N2c2ccc3[nH]cnc3c2)cc1.Cl [Ex. 4.2, (S)-1-(1H-benzo[d]imidazol-5-yl)-5-(4-propoxyphenyl) imidazolidin-2-one hydrochloride]
hygroscopicity (DVS, overall conclusion) ([1]; 25° C., listed as HCl salt prepared according to Example 4.2, hydrochloride): hygroscopic
final mass gain (water sorption) compared to the initial mass ([1]; 95% RH, 25° C.): 5-6%
hygroscopicity up to 55% RH (DVS) ([1]; up to 55% RH, 25° C.): no hygroscopicity
Degree of crystallinity [2]: 64%

SMILES: CCCOc1ccc([C@H]2CNC(=O)N2c2ccc3[nH]cnc3c2)cc1.Cl [Ex. 4.3, (S)-1-(1H-benzo[d]imidazol-5-yl)-5-(4-propoxyphenyl) imidazolidin-2-one hydrochloride]
hygroscopicity (DVS, overall conclusion) ([1]; 25° C., listed as HCl salt prepared according to Example 4.3, hydrochloride): not to be hygroscopic
mass gain in DVS over the complete range of RH ([1]; complete range of RH): no mass gain
Degree of crystallinity [2]: 68%

Second part, the compound after the results:

crystallinity (by XRPD) [3]: good
hygroscopicity [4]: low
SMILES: CCCOc1ccc([C@H]2CNC(=O)N2c2ccc3[nH]cnc3c2)cc1 [TosOH]

crystallinity (by XRPD) [3]: good
hygroscopicity [4]: high
hygroscopicity (DVS, words) ([4]; material of Example 3.2): very hygroscopic
water uptake (DVS) ([4]; material of Example 3.2, 25° C., up to 98% RH, uptake not finished at maximum humidity): more than 16 % w/w
solubility ([5]; 20 °C, water, thermodynamic from solid): 130 mM
solubility in water higher than the tosylate salt by ([5]; hydrochloride versus tosylate): two orders of magnitude
SMILES: CCCOc1ccc([C@H]2CNC(=O)N2c2ccc3[nH]cnc3c2)cc1.Cl [Varoglutamstat Hydrochloride, (S)-1-(1H-benzo[d]imidazol-5-yl)-5-(4-propoxyphenyl) imidazolidin-2-one hydrochloride]

crystallinity (by XRPD) [3]: none
hygroscopicity [4]: high
SMILES: CCCOc1ccc([C@H]2CNC(=O)N2c2ccc3[nH]cnc3c2)cc1 [Varoglutamstat free base, (S)-1-(1H-benzo[d]imidazol-5-yl)-5-(4-propoxyphenyl)imidazolidin-2-one]
